Where a SMILES comes first, the peptide text is derived from it.
System: T harzianum DAOM 190830
Test: Carbon source utilization in SF-N MICROPLATE with redox purple
Type: cell-based, Trichoderma harzianum
Details: not given

Compound	carbon source utilization result
C[C@H](N)C(=O)NCC(=O)O [L-alanyl-glycine] (H-Ala-Gly-OH)	positive
gentiobiose	positive
NCC(=O)N[C@@H](CCC(=O)O)C(=O)O [Glycyl-L-glutamic acid] (H-Gly-Glu-OH)	positive
O=C(O)CCC(=O)C(=O)O [α-ketoglutaric acid]	positive

Same assay, conditions: redox purple 200 μM, 0.25% GELRITE, 30° C., approximately 24 hours

Compound	carbon source utilization result
OC[C@H]1O[C@H](OCC2O[C@@H](O)[C@H](O)[C@@H](O)[C@@H]2O)[C@H](O)[C@@H](O)[C@H]1O (stereo partly drawn) [D-melibiose]	positive
O=C1CC[C@@H](C(=O)O)N1 [L-pyroglutamic acid]	positive
OC[C@H]1O[C@H](O)[C@H](O)[C@@H](O)[C@@H]1O [α-D-glucose]	positive
O=C(O)CC(Br)C(=O)O (stereo not shown) [Bromo succinic acid]	positive
O=C(O)CCCCCCCCC(=O)O [sebacic acid]	positive
OCC(O)CO [Glycerol]	positive
O=C[C@H](O)[C@@H](O)[C@H](O[C@@H]1O[C@H](CO)[C@@H](O)[C@H](O)[C@H]1O)[C@H](O)CO [Cellobiose]	positive
OC[C@@H](O)C(O)[C@H](O)CO [D-arabitol]	positive
O=C(O)[C@]1(O)C[C@@H](O)[C@@H](O)[C@H](O)C1 [quinic acid]	positive
Tween-80	positive
Tween-40	positive
NCCC[C@H](N)C(=O)O [L-ornithine]	positive
OC[C@@H](O)[C@@H](O)[C@H](O)[C@@H](O)CO [D-sorbitol]	positive
COC1OC(CO)C(O)C(O)C1O (stereo not drawn) [β-methyl glucoside]	positive
O=C(O)CCC(=O)O [Succinic acid]	positive
dextrin	positive
N[C@@H](Cc1ccccc1)C(=O)O [L-phenylalanine]	positive
O=C(O)CC(O)(CC(=O)O)C(=O)O [Citric acid]	positive
N[C@@H](CO)C(=O)O [L-serine]	positive

Compound	carbon source utilization result
CC(O)CC(=O)O (stereo not drawn) [β-hydroxybutyric acid]	positive
NC(=O)CCC(=O)O [succinamic acid]	positive
OC[C@@H](O)[C@@H](O)CO [i-erythritol]	positive
O=C[C@H](O)[C@@H](O)[C@@H](O)[C@H](O)CO [D-galactose]	positive
glycogen	positive
OC[C@H]1O[C@H](O[C@H]2O[C@H](CO)[C@@H](O)[C@H](O)[C@H]2O)[C@H](O)[C@@H](O)[C@@H]1O [D-trehalose]	positive
CC(=O)N[C@H]1C(O)O[C@H](CO)[C@@H](O)[C@@H]1O (stereo partly drawn) [N-acetyl-D-glucosamine]	positive
OC[C@H]1O[C@@H](n2cnc3c(O)ncnc32)[C@H](O)[C@@H]1O [Inosine]	positive
NCCCC(=O)O [γ-aminobutyric acid]	positive
O=C[C@@H](O)[C@@H](O)[C@H](O)[C@H](O)CO [D-mannose]	positive
OC[C@@H](O)[C@@H](O)[C@H](O)[C@H](O)CO [D-mannitol]	positive
O=C(CO)[C@@H](O)[C@H](O)[C@H](O)CO [D-fructose]	positive
O=C(O)[C@@H]1CCCN1 [L-proline]	positive
NC(=O)C[C@H](N)C(=O)O [L-asparagine]	positive
COC(=O)C(C)=O [Methyl pyruvate]	positive
C[C@H](N)C(=O)O [L-alanine]	positive
C[C@H](O)[C@@H](O)[C@@H](O)[C@H](O)C=O [L-fucose]	positive
N[C@@H](CCC(=O)O)C(=O)O [L-glutamic acid]	positive

System: E. coli 287 (ATCC #11775)
Test: Carbon source utilization in GN / SF-N MICROPLATE with redox purple, tetrazolium violet or resazurin
Details: not given

Compound	carbon source utilization result
N[C@@H](CCC(=O)O)C(=O)O [L-glutamic acid]	positive

Same assay, conditions: redox purple; 0.85% NaCl suspension

Compound	carbon source utilization result
O=C(O)[C@@H]1CCCN1 [L-proline]	negative

Same assay, conditions: resazurin; 0.2% carrageenan suspension

Compound	carbon source utilization result
NCCCC(=O)O [γ-aminobutyric acid]	positive

Same assay, conditions: resazurin; 0.85% NaCl suspension

Compound	carbon source utilization result
NCCCC(=O)O [γ-aminobutyric acid]	equivocal (±)

Same assay, conditions: the remaining results (all indicator/suspension combinations except redox purple in 0.85% NaCl)

Compound	carbon source utilization result
O=C(O)[C@@H]1CCCN1 [L-proline]	positive

From patent publication US9274101B2 (BIOLOG, Inc., priority 2001, dated 2016)
